# Reference: paper PMC7395062, “Multiparametric assessment of mitochondrial respiratory inhibition in HepG2 and RPTEC/TERT1 cells using a panel of mitochondrial targeting agrochemicals” (Archives of Toxicology, 2020)
# System: CII/CIII (succinate dehydrogenase / cytochrome bc1 complex)
# Format: cell-based, human
# Method: The test compound is injected and OCR is measured. […] OCR is measured for the second time. […] A third and final OCR measurement is conducted.
# Compounds were injected sequentially and OCR was measured twice. […] ETC inhibition is determined in decreased OCR.
# All results are average of 2–3 independent experiments.
smiles,measurement,value
CO/N=C(/C(=O)OC)c1ccccc1COc1ccccc1C [Kresoxim-methyl],ETC-complex specificity pattern (CII/CIII),conformed to this pattern
